Reference: paper PMC11321638 (Advanced Science, 2024)

Assays:
chymotrypsin = assay: protease hydrolysis test, chymotrypsin; conditions: 1 mg/mL in PBS with calcium ions, 0.5 mg/ml protease, 0 min-24 h, residual peptide by HPLC; listed as RSI pep
trypsin = assay: protease hydrolysis test, trypsin; conditions: 1 mg/mL in PBS with calcium ions, 0.5 mg/ml protease, 0 min-24 h, residual peptide by HPLC; listed as RSI pep

CSCC[C@H](NC(=O)[C@H](CCC(=O)O)NC(=O)[C@H](CCC(=O)O)NC(=O)[C@H](CC(C)C)NC(=O)[C@H](C)NC(=O)[C@H](CC(N)=O)NC(=O)[C@H](CCCNC(=N)N)NC(=O)[C@H](CCSC)NC(=O)[C@H](Cc1ccccc1)NC(=O)[C@H](CCC(=O)O)NC(=O)[C@@H](N)CO)C(=O)N[C@@H](CC(C)C)C(=O)N[C@@H](CCCNC(=N)N)C(=O)N[C@@H](CCCNC(=N)N)C(=O)N[C@@H](C)C(N)=O [RSIpep]
t1/2 with chymotrypsin (chymotrypsin): less than 1 h
t1/2 with trypsin (trypsin): less than 1 h
